## Measured affinities in a library of Ab-14 heavy chain variants

Source: Li et al. 2023 (doi:10.1038/s41467-023-39022-2), MIT Lincoln Laboratory and A-Alpha Bio; data file from the FLAb repository.

Target: peptide PDVDLGDISGINAS, taken from heptad repeat 2 (HR2) of SARS-CoV-2 spike.

Each scFv is VH, three GGGGS repeats, VL, as in the parent Ab-14, and differs from it in the CDRs of the heavy chain only.
VH: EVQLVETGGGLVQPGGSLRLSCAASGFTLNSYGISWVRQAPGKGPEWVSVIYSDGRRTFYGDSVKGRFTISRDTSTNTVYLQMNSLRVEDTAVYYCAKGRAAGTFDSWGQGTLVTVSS
VL: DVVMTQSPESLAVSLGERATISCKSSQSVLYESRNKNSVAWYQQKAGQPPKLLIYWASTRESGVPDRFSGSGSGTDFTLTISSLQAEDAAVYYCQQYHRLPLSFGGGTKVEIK

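Designed CDR sequences, proposed from the first random library and measured here. Several design methods are mixed in this list. In AlphaSeq, yeast of one mating type display the scFv and yeast of the other type display the target. Pairs that bind mate more often; barcode pairs of the diploids are counted by sequencing. A regression on co-assayed BCL2-family reference pairs converts the normalised counts of each replicate to an apparent Kd. Each pool was mated in six replicate cultures.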

The parent's heavy chain CDRs are GFTLNSYGIS, VIYSDGRRTFYGDSVK, GRAAGTFDS; each variant's own CDRs replace them letter for letter. Scale: log10 of Kd in nM, estimated from mating counts; low values are strong binders. Averages over replicates are reported, and they cover detected replicates only. "no signal" means that the variant was in the library but no mating with the target was seen in any replicate; the authors take this as a sign of poor binding, and no number exists. Three control strains display no target. For all heavy chain designs, 1% of the pairings with them gave a signal, with a median of 2.08 and one signal in twenty below 0.84, so weak values seen in few replicates may be background. The control count says in how many pairings with the empty strains this scFv gave a signal.

| CDR-H1 | CDR-H2 | CDR-H3 | mean, log10 nM | detected | signal with controls |
|---|---|---|---|---|---|
| GKDLEEYGIS | VIYADGHRAAYADSVK | GINMDIMTV | 2.57 | 1 of 6 | 0 of 18 |
| GFGLNSYGIS | VIYSDGRRTFYADSVK | GREAGTFDT | no signal | 0 of 6 | 0 of 18 |
| GFDLNEYGIS | VIYADGSRTAYIDSVK | GQNAGTFDV | 0.79 | 6 of 6 | 0 of 18 |
| GFDLENYGIS | VIYADGRRTFYSDSVK | GENAGTFDI | -0.48 | 6 of 6 | 0 of 18 |
| GFEIEEYGIS | VIYADGQRKSYINSVK | GKVDVTVMY | -0.50 | 6 of 6 | 0 of 18 |
| GFNLDEYGIS | VIYADGRRTFYADSVK | GSEAGTFDT | -0.48 | 6 of 6 | 0 of 18 |
| GFGLNSYGIS | VIYSDGRRTFYSDSVK | GQEAGTFDS | -0.29 | 6 of 6 | 1 of 18 |
| GFNLEDYGIS | VIYADGRRTFYSDSVK | GKVAGTFDV | -0.61 | 6 of 6 | 0 of 18 |
| GFDLNEYGIS | VIYSDGRRTFYGDSVK | GKAAGTFDL | 0.21 | 6 of 6 | 1 of 18 |
| GFNLNSYGIS | VIYADGRRTFYGDSVK | GKAAGTFDS | -0.42 | 12 of 12 | 0 of 36 |
| GFELSEYGIS | VIYADGVRSFVTQDVK | GQKGGVFNV | no signal | 0 of 6 | 0 of 18 |
| GFDLNEYGIS | VIYADGRRTAYADSVK | GSEAGTFNM | -0.65 | 6 of 6 | 1 of 18 |
| GFTLNEYGIS | VIYSDGRRTFYMDSVK | GRHAGTFDS | 0.98 | 6 of 6 | 1 of 18 |
| GFTLNEYGIS | VIYSDGRRTFYSDSVK | GRHAGTFDS | 0.01 | 6 of 6 | 0 of 18 |
| GFSLNSYGIS | VIYADGRRTFYGDSVK | GKAAGTFDK | no signal | 0 of 6 | 0 of 18 |
| GFDLEDYGIS | VIYADGRRTFYSDSVK | GEIAGTFDE | -0.38 | 6 of 6 | 0 of 18 |
| GFNLNSYGIS | VIYSDGRRTFYADSVK | GWVAGTFDS | 0.14 | 6 of 6 | 1 of 18 |
| GFDLNSYGIS | VIYSDGRRTFYGDSVK | GRTADTFNS | no signal | 0 of 6 | 0 of 18 |
| KTTLNSYGIS | VIYSDGRRTFYTDSVK | GRAAGTFDS | 2.03 | 5 of 6 | 0 of 18 |
| GFELNSYGIS | VIYSDGRRTMYGDDVK | GMAAGTFDS | 2.14 | 6 of 6 | 1 of 18 |
| MFELNSYGIS | VIYSDGRRTFYADSVK | GRTAGTFDK | 0.76 | 5 of 6 | 0 of 18 |
| GFELNSYGIS | VIYSDGRRTFYIDSVK | GRIAGTFDS | 1.30 | 6 of 6 | 1 of 18 |
| GFDLNEYGIS | VIYADGQRTFYADSVK | GNQAGTFDL | -0.60 | 6 of 6 | 1 of 18 |
| GFQLDEYGIS | VIYADGMRTFYQDSVK | GEVAGTFDV | 1.56 | 6 of 6 | 1 of 18 |
| GFQLNEYGIS | VIYSDGRRTFYHDSVK | GRAAGTFDQ | 0.24 | 6 of 6 | 3 of 18 |
| GFSLNEYGIS | VIYSDGKRTFYGDSVK | GKTAGTFDS | -0.19 | 6 of 6 | 0 of 18 |
| GFDLNEYGIS | VIYADGVRQAYADSVK | GNVAGTFDI | -0.05 | 6 of 6 | 0 of 18 |
| KFNLNSYGIS | VIYSDGRRTFYVDSVK | GRTAGTFDS | no signal | 0 of 6 | 0 of 18 |
| GHTLGEYGIS | VIYSDGRRTYYGDSVK | GYAAGTFDS | no signal | 0 of 6 | 0 of 18 |
| GFDLNEYGIS | VIYADGMRSVYADSVK | GNQAGTFDV | -0.22 | 6 of 6 | 0 of 18 |
| KFSLNSYGIS | VIYSDGRRTFYADSVK | GRHAGTFDS | 1.61 | 6 of 6 | 0 of 18 |
| GFDLNEYGIS | VIYADGRRTYYIDSVK | GEIAGTFDS | -1.04 | 6 of 6 | 0 of 18 |
| GFQIDEYGIS | VIYADGMRSFYKNSVK | NGMNVSGIV | no signal | 0 of 6 | 1 of 18 |
| GFDLDEYGIS | VIYADGMRKAYADSVK | GNQAGTFDV | -0.59 | 6 of 6 | 0 of 18 |
| GFTLNEYGIS | VIYSDGRRTWYGDSVK | GRAAGTFDS | 0.13 | 9 of 12 | 0 of 36 |
| GFHLNSYGIS | VIYSDGRRTFYVDSVK | GRQAGTFDS | no signal | 0 of 6 | 0 of 18 |
| GKDIEEYGIS | VIYADGMRQAYAESVK | GQVAGTGKF | no signal | 0 of 6 | 0 of 18 |
| GFTLNSYGIS | VIYSDGRRTFYSDSYK | GRAAGAFDS | no signal | 0 of 6 | 0 of 18 |
| GFELDEYGIS | VIYADGHRRAYADDVK | GMHMGSVQH | no signal | 0 of 6 | 0 of 18 |
| GFHLNDYGIS | VIYSDGRRTFYDDSVK | GRLAGTFDS | 0.47 | 6 of 6 | 0 of 18 |
| GFSLNSYGIS | VIYSDGRRTFYHDSVK | GEAAGTFDS | -0.27 | 6 of 6 | 1 of 18 |
| GFDLNSYGIS | VIYSDGRRTFYSDSVK | GQAVGTFDS | 2.39 | 1 of 6 | 1 of 18 |
| GFTLNSYGIS | VIYSDGRRTFYDDSVK | GAQAGTFDS | 1.42 | 5 of 6 | 2 of 18 |
| GFDLNEYGIS | VIYADGRRSAYADSVK | GNVAGTFDV | -0.23 | 6 of 6 | 1 of 18 |
| GFNLGSYGIS | VIYSDGRRTFYDDSVK | GRAAGTFDS | 1.12 | 5 of 6 | 1 of 18 |
| GFQLNSYGIS | VIYSDGRRTFYQDQVK | GEAAGTFDS | 1.72 | 6 of 6 | 1 of 18 |
| GNTLNSYGIS | VIYSDGRRTFYGDNVK | GRAAGTFDS | 2.50 | 3 of 6 | 1 of 18 |
| GFDLNSYGIS | VIYSDGRRTFYGDSVK | GKAAGTFDN | 1.44 | 6 of 6 | 0 of 18 |
| GETLNSYGIS | VIYSDGRRTFYGGEVK | GEFAGTFTV | no signal | 0 of 6 | 0 of 18 |
| GFDLDEYGIS | VIYADGRRTAYADSVK | GSNAGTFDV | -0.11 | 3 of 6 | 0 of 18 |
| GFTLNSYGIS | VIYSDGRRTQYIDSVK | GNAAGTFDS | 2.33 | 4 of 6 | 1 of 18 |
| GFDLNSYGIS | VIYSDGRRSFYGDSVK | GREAGTFDS | -0.08 | 6 of 6 | 0 of 18 |
| GFDLNEYGIS | VIYADGRRTFYADSVK | GGAAGTFDQ | -0.35 | 6 of 6 | 0 of 18 |
| GFTLNSYGIS | VIYSDGWRTFYGDSVK | GQVAGTFDS | -0.01 | 6 of 6 | 0 of 18 |
| GFTLNSYGIS | VIYADGRRTFYGDSVK | GRAAGTFDW | 1.75 | 2 of 6 | 0 of 18 |
| GFDLEEYGIS | VIYADGRRTAYTDSVK | GNVAGTFDV | -0.47 | 6 of 6 | 0 of 18 |
| GFDLNEYGIS | VIYADGMRTAYADSVK | GENAGTFVV | 1.74 | 3 of 6 | 0 of 18 |

Extract of 4 entries:

{"CDR-H1": "GFTLNSYGIS", "CDR-H2": "VIYSDGRRTQYIDSVK", "CDR-H3": "GNAAGTFDS", "mean, log10 nM": "2.33", "detected": "4 of 6", "signal with controls": "1 of 18"}
{"CDR-H1": "GFDLNEYGIS", "CDR-H2": "VIYADGQRTFYADSVK", "CDR-H3": "GNQAGTFDL", "mean, log10 nM": "-0.60", "detected": "6 of 6", "signal with controls": "1 of 18"}
{"CDR-H1": "GFDLNEYGIS", "CDR-H2": "VIYADGMRTAYADSVK", "CDR-H3": "GENAGTFVV", "mean, log10 nM": "1.74", "detected": "3 of 6", "signal with controls": "0 of 18"}
{"CDR-H1": "GFTLNSYGIS", "CDR-H2": "VIYSDGRRTFYSDSYK", "CDR-H3": "GRAAGAFDS", "mean, log10 nM": "no signal", "detected": "0 of 6", "signal with controls": "0 of 18"}

A sequence that the file lists under several names has all its replicates pooled. A sequence measured in both rounds can read differently, since the two assays cover different ranges. The authors' rule: three or more of the six replicates give a measured affinity, fewer mean a poor binder.